For test [1], the species on record is Homo sapiens. The test is described as follows: Selectivity ratio of Ki for human mu opioid receptor to Ki for human kappa opioid receptor.
Test [2] is filed under the species Homo sapiens. As to the kind of experiment: Selectivity ratio of Ki for human delta opioid receptor to Ki for human kappa opioid receptor.

With `Oc1ccc2c(c1)[C@@]13CCCC[C@H]1[C@@H](C2)N(CC1CCC1)CC3`, the Ratio Ki in the test filed under Homo sapiens [1] was found to be 3; in the test listed under Homo sapiens [2], 75.

(Values after ChEMBL document CHEMBL1154976, “Effect of linker substitution on the binding of butorphan univalent and bivalent ligands to opioid receptors” (Bioorg Med Chem Lett, 2010).)
